Source: paper PMC5054527, “Mechanism of high affinity inhibition of the human urate transporter URAT1” (Scientific Reports, 2016)

Protein sequences, listed by entry. Tags and fused reporters are not part of them. Residues count along the entry.
UniProt Q3ZAV1, 100-553, stated change not applied: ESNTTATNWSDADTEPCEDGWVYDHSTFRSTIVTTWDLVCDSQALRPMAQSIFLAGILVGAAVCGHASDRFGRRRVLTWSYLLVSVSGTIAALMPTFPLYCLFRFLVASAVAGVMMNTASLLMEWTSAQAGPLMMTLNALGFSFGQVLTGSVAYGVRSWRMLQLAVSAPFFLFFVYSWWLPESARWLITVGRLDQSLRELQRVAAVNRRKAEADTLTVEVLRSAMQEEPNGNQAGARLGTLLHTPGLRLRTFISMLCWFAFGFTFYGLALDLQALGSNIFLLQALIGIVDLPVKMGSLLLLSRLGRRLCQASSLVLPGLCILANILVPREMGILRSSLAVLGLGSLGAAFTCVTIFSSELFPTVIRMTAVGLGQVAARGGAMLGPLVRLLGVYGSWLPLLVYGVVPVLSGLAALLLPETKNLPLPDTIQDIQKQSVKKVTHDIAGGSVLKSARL
UniProt Q96S37, 1-99, stated change not applied: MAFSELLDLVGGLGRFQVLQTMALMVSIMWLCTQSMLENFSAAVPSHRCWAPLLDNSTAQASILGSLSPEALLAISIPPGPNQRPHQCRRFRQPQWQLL
UniProt Q96S37, whole entry C351F/T354M/F365Y: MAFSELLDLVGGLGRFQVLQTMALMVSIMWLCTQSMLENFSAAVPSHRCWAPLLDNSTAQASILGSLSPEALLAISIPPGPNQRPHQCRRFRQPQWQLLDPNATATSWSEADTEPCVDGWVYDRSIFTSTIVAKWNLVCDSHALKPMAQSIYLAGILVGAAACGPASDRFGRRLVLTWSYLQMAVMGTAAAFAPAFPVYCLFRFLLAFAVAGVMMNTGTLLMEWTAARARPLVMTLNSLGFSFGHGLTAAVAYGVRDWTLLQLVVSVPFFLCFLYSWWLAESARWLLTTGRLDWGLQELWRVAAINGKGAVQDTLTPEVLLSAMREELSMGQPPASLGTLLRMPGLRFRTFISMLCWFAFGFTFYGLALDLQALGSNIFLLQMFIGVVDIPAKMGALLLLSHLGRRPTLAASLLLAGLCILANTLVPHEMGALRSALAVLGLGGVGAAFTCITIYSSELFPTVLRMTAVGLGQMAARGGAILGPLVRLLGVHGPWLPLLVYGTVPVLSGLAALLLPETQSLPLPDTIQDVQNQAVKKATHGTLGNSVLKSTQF
UniProt Q96S37, whole entry M383A/F384L/V387I/I390L/A392V/A396S/H402R/P407L: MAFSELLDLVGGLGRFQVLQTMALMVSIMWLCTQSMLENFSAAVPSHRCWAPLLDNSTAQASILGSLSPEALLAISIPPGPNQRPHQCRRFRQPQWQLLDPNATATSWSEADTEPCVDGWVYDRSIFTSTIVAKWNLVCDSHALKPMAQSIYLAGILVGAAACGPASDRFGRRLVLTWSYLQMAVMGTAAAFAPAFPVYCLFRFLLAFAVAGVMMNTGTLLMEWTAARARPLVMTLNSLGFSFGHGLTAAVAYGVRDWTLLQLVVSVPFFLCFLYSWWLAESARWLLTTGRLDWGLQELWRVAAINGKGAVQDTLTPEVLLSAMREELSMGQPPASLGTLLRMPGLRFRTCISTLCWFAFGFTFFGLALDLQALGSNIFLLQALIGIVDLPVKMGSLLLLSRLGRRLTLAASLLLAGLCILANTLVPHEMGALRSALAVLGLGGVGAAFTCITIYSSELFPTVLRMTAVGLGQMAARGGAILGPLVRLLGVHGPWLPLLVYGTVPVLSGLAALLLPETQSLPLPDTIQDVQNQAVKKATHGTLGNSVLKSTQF
UniProt Q96S37, 100-553, stated change not applied: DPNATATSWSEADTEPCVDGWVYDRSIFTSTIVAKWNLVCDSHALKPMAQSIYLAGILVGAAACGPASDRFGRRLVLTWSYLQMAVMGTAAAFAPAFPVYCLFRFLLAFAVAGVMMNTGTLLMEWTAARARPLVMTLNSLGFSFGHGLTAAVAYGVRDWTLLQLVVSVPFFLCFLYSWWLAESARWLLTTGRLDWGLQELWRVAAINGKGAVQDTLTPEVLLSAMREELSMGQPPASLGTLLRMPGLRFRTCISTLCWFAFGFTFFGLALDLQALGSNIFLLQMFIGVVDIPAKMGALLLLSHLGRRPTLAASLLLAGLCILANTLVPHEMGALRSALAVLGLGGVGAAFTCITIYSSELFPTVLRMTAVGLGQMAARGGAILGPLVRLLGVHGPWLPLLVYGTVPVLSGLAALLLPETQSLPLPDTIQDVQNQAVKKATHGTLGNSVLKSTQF
UniProt Q96S37, whole entry V233M/S238A: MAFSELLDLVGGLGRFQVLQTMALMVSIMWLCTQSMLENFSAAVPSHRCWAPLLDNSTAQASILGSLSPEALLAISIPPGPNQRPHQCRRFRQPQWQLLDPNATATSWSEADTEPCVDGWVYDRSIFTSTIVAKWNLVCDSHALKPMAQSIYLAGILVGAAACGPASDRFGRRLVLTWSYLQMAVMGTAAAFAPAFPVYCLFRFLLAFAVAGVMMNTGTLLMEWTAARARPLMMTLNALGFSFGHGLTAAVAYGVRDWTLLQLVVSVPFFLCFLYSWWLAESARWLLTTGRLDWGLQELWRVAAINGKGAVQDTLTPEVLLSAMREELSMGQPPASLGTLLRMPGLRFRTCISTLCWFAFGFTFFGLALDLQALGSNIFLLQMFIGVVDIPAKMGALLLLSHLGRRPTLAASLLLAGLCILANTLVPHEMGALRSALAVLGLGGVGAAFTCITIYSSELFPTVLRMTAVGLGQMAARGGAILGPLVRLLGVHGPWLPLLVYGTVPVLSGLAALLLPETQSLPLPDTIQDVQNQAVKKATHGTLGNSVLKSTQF
UniProt Q96S37, whole entry C272F/L274V: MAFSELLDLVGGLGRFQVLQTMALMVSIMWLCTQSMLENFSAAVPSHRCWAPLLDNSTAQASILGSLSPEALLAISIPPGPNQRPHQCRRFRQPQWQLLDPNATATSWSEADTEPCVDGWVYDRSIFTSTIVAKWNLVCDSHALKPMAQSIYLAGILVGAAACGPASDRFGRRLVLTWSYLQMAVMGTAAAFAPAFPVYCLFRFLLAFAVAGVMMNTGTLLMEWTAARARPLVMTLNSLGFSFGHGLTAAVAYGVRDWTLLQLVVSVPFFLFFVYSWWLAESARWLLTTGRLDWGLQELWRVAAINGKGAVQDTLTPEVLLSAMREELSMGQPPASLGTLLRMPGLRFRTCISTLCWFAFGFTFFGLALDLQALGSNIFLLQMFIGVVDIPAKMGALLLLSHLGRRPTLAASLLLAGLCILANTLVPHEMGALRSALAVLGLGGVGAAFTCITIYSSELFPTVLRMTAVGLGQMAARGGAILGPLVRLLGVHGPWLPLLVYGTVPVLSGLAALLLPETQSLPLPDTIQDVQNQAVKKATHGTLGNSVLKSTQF
UniProt Q96S37, whole entry M474V/I481M: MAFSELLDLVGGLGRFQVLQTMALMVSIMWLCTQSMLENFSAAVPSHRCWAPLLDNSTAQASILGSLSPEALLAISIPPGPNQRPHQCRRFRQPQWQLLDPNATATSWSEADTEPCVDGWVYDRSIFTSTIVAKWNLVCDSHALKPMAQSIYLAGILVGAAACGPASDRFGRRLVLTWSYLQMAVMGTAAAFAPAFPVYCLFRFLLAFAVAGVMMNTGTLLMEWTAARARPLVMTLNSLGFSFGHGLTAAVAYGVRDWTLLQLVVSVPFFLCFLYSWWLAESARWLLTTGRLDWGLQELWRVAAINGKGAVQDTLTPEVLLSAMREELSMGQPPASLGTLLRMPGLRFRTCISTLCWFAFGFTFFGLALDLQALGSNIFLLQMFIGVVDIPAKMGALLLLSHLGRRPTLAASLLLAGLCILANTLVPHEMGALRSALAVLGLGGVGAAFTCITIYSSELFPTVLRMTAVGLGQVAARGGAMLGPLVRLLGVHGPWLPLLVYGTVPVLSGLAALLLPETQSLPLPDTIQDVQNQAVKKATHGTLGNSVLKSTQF
UniProt Q96S37, whole entry H492Y/P494S/T503V: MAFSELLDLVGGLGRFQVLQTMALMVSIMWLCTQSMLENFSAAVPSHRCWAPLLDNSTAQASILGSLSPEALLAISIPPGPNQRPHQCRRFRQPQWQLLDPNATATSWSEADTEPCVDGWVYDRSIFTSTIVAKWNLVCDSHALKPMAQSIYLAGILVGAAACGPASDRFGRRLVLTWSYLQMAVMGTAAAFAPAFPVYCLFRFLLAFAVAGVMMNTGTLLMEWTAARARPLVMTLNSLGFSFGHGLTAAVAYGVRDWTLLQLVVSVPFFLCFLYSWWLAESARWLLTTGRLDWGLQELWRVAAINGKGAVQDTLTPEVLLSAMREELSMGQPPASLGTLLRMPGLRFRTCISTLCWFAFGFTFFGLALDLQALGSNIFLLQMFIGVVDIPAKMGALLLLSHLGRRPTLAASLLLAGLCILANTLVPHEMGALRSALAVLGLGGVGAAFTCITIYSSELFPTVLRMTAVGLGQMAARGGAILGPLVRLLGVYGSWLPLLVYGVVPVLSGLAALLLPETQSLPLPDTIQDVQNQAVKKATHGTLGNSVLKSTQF
UniProt Q96S37, whole entry H245Q/G246V/A249G/A250S: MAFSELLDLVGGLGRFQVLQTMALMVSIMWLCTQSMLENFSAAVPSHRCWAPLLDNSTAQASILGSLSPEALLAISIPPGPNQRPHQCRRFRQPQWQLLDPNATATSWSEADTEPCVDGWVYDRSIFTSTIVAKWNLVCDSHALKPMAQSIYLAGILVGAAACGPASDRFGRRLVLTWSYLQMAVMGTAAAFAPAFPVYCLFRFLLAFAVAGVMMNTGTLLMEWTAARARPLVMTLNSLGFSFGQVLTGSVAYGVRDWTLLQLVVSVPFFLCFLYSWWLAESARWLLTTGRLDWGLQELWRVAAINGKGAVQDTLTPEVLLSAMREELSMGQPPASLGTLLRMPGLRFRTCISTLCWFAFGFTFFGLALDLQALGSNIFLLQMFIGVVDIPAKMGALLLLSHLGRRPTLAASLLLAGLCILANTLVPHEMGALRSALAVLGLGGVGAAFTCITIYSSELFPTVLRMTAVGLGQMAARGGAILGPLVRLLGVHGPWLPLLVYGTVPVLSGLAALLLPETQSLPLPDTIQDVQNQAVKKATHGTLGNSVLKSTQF
UniProt Q96S37, whole entry T424I/H428R/A432I/A436S: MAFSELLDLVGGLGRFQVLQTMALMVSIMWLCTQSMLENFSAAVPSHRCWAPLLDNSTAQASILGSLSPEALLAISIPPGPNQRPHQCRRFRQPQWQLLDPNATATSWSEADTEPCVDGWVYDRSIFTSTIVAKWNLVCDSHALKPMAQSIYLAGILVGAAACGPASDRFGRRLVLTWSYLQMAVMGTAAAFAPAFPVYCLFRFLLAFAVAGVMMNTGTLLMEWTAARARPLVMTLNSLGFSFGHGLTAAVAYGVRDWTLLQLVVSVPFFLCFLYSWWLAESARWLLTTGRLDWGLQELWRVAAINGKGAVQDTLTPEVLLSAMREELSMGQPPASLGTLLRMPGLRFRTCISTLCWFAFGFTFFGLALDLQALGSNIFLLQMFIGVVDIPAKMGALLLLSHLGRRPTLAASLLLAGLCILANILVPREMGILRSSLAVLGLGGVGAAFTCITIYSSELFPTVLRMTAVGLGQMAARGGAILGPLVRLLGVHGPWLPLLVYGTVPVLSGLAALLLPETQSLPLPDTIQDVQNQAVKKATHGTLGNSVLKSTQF
UniProt Q96S37, whole entry A411S/L414V/A416P: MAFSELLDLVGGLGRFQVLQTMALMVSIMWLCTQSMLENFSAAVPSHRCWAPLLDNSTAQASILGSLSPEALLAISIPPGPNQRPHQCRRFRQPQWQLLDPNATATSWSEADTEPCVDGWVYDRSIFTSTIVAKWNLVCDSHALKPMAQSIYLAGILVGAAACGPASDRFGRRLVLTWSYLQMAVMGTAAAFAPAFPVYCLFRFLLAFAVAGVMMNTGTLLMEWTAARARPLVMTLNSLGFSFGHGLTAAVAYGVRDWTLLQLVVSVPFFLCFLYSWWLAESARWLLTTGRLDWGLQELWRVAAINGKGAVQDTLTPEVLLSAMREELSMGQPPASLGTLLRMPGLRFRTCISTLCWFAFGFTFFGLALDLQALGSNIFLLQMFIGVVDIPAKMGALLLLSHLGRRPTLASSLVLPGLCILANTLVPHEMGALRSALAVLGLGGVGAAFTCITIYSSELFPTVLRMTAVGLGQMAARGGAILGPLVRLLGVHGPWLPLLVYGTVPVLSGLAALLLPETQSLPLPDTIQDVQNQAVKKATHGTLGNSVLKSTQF
UniProt Q96S37, whole entry M25V: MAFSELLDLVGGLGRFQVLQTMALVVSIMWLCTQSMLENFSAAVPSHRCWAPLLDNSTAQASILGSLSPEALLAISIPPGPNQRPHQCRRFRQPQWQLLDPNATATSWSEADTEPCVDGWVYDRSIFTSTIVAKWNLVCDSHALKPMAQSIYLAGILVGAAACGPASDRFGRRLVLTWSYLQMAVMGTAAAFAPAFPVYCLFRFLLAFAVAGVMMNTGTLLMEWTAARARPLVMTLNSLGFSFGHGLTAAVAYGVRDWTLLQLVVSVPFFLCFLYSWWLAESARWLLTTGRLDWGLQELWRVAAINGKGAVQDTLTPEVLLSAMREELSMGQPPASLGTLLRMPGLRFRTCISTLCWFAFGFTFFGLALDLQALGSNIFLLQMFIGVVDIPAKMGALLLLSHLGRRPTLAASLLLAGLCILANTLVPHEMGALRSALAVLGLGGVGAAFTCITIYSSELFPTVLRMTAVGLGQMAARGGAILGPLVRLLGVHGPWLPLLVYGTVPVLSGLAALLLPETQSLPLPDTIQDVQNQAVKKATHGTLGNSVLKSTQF

Legend:
[1] = molecular target: T1, r-h TM1 chimera (hURAT1 residues 1–99 and rURAT1 residues 100–553) (UniProt Q3ZAV1+Q96S37); experiment: URAT1 uric acid transport activity assay; assay type: cell-based, human/rat; conditions: MES pH 5.5, 100 μM 14C-uric acid
T1 construct: The chimera r-hTM1, consisting of hURAT1 residues 1–99 and rURAT1 residues 100–553; expressed in transfected cells; host or cells: HEK-293T
Text: (§1) hURAT1 (GenBank BC053348.1) and rURAT1 (NCBI NM_001034943.1) genes were purchased from Origene Technologies, Inc. and subcloned into pCMV6/neo using NotI, creating pCMV6/neo-hURAT1 and pCMV6/neo-rURAT1. Mutants were produced by polymerase chain reaction (PCR) or site-directed mutagenesis using the QuikChange Lightning Multi Site-Directed Mutagenesis Kit (Agilent Technologies). […] Detailed methods are provided in Supplementary Methods, and primers are listed in Supplementary Table 1. […] Residues in rURAT1 and hOAT1 that correspond to the residues in hURAT1 were identified from aligned protein sequences (Supplementary Fig. 1)[50].
(§2) DNA (10 μg) was mixed with 30 μl of DreamFect Gold (Boca Scientific) in 2 ml OptiMem (Life Technologies). After 20 minutes, 18 ml of media containing 2 × 10^7 cells in suspension was added and mixed, and 200 μl per well were plated onto white clear-bottomed poly-D-lysine coated 96-well plates (BD Biosciences). The cells were assayed the following day.
(§3) Compounds were serially diluted into assay buffer and added to the cells for 5 minutes prior to addition of radiolabelled uric acid substrate. URAT1-expressing cells were incubated with 100 μM ^14C-uric acid for 10 minutes. […] Each treatment was measured in triplicate.
(§4) Unlabelled uric acid was prepared at a 20 mM stock just prior to use in a solution containing 20 mM dibasic potassium phosphate and 20 mM potassium hydroxide.
(§5) Nonlinear regression analyses using GraphPad Prism software were used to calculate the potency of URAT1 inhibitors (IC50 values) from log (inhibitor) versus response - variable slope (four parameters) equations. Statistical significance was assessed using Student’s unpaired t-tests.

h-r TM7 URAT1 chimera = molecular target: T2, h-r TM7 URAT1 chimera (Homo sapiens, UniProt Q96S37, C351F/F365Y/T354M); experiment: URAT1 uric acid transport activity assay; assay type: cell-based, human/rat; conditions: MES pH 5.5, 100 μM 14C-uric acid
T2 construct: expressed in transfected cells; host or cells: HEK-293T
Text: as §1, §2, §3, §4, §5

h-r TM8 URAT1 chimera = molecular target: T3, h-r TM8 URAT1 chimera (Homo sapiens, UniProt Q96S37, A392V/A396S/F384L/H402R/I390L/M383A/P407L/V387I); experiment: URAT1 uric acid transport activity assay; assay type: cell-based, human/rat; conditions: MES pH 5.5, 100 μM 14C-uric acid
T3 construct: expressed in transfected cells; host or cells: HEK-293T
Text: as §1, §2, §3, §4, §5

[2] = molecular target: T4, h-r TM1 chimera (rURAT1 residues 1–99 and hURAT residues 100–553) (UniProt Q3ZAV1+Q96S37); experiment: URAT1 uric acid transport activity assay; assay type: cell-based, human/rat; conditions: MES pH 5.5, 100 μM 14C-uric acid
T4 construct: a chimera consisting of rURAT1 residues 1–99 and hURAT residues 100–553 (h-r TM1); expressed in transfected cells; host or cells: HEK-293T
Text: as §1, §2, §3, §4, §5

h-r TM5-N URAT1 chimera = molecular target: T5, h-r TM5-N URAT1 chimera (Homo sapiens, UniProt Q96S37, S238A/V233M); experiment: URAT1 uric acid transport activity assay; assay type: cell-based, human/rat; conditions: MES pH 5.5, 100 μM 14C-uric acid
T5 construct: expressed in transfected cells; host or cells: HEK-293T
Text: as §1, §2, §3, §4, §5

h-r TM6 URAT1 chimera = molecular target: T6, h-r TM6 URAT1 chimera (Homo sapiens, UniProt Q96S37, C272F/L274V); experiment: URAT1 uric acid transport activity assay; assay type: cell-based, human/rat; conditions: MES pH 5.5, 100 μM 14C-uric acid
T6 construct: expressed in transfected cells; host or cells: HEK-293T
Text: as §1, §2, §3, §4, §5

h-r TM11 URAT1 chimera = molecular target: T7, h-r TM11 URAT1 chimera (Homo sapiens, UniProt Q96S37, I481M/M474V); experiment: URAT1 uric acid transport activity assay; assay type: cell-based, human/rat; conditions: MES pH 5.5, 100 μM 14C-uric acid
T7 construct: expressed in transfected cells; host or cells: HEK-293T
Text: as §1, §2, §3, §4, §5

h-r TM12 URAT1 chimera = molecular target: T8, h-r TM12 URAT1 chimera (Homo sapiens, UniProt Q96S37, H492Y/P494S/T503V); experiment: URAT1 uric acid transport activity assay; assay type: cell-based, human/rat; conditions: MES pH 5.5, 100 μM 14C-uric acid
T8 construct: expressed in transfected cells; host or cells: HEK-293T
Text: as §1, §2, §3, §4, §5

h-r TM5-C URAT1 chimera = molecular target: T9, h-r TM5-C URAT1 chimera (Homo sapiens, UniProt Q96S37, A249G/A250S/G246V/H245Q); experiment: URAT1 uric acid transport activity assay; assay type: cell-based, human/rat; conditions: MES pH 5.5, 100 μM 14C-uric acid
T9 construct: expressed in transfected cells; host or cells: HEK-293T
Text: as §1, §2, §3, §4, §5

h-r TM9-C URAT1 chimera = molecular target: T10, h-r TM9-C URAT1 chimera (Homo sapiens, UniProt Q96S37, A432I/A436S/H428R/T424I); experiment: URAT1 uric acid transport activity assay; assay type: cell-based, human/rat; conditions: MES pH 5.5, 100 μM 14C-uric acid
T10 construct: expressed in transfected cells; host or cells: HEK-293T
Text: as §1, §2, §3, §4, §5

h-r TM9-N URAT1 chimera = molecular target: T11, h-r TM9-N URAT1 chimera (Homo sapiens, UniProt Q96S37, A411S/A416P/L414V); experiment: URAT1 uric acid transport activity assay; assay type: cell-based, human/rat; conditions: MES pH 5.5, 100 μM 14C-uric acid
T11 construct: expressed in transfected cells; host or cells: HEK-293T
Text: as §1, §2, §3, §4, §5

h-r IC3 URAT1 chimera = h-r IC3 URAT1 chimera (Homo sapiens, UniProt Q96S37, F348L/G295S/G307R/G309K/G331N/I305V/K308R/L287I/L321R/L328P/M330G/M343T/P317V/P333A/P334G/Q297R/Q312A/R325Q/R342H/S329N/S336R/T289V/V311E/W294Q/W300Q); experiment: cell-based
Text: as §1
(§6) DNA (10 μg) was mixed with 30 μl of DreamFect Gold (Boca Scientific) in 2 ml OptiMem (Life Technologies). […]
(§7) Compounds were serially diluted into assay buffer and added to the cells for 5 minutes prior to addition of radiolabelled uric acid substrate. […] Each treatment was measured in triplicate. […]
as §5

[3] = molecular target: h-r EC1,TM2-4 URAT1 chimera (Homo sapiens, UniProt Q96S37, A103T/A133T/A162V/A184S/A189I/A193M/A195T/A226S/A51V/A59S/A71V/D100E/E110D/E70D/F192L/F208S/G218A/H142Q/I126T/I75V/K134T/K145R/L174R/L206V/L64P/L67F/L99I/M183V/M186S/N136D/N82D/P101S/P165H/P69R/Q182L/R124H/R89L/S107N/S46H/S66D/S68G/T128R/T219S/V117E/V198L/Y152F); experiment: cell-based; conditions: IC50 (uric acid transport)
Text: as §1, §6, §7, §5

[4] = molecular target: T12, h-M25V hURAT1 point mutant (Homo sapiens, UniProt Q96S37, M25V); experiment: URAT1 uric acid transport activity assay; assay type: cell-based; conditions: MES pH 5.5, 100 μM 14C-uric acid
T12 construct: expressed in transfected cells; host or cells: HEK-293T
Text: as §1, §2, §3, §4, §5

[5] = molecular target: T13, h-M22V hURAT1 point mutant (Homo sapiens, UniProt Q96S37, M22V); experiment: URAT1 uric acid transport activity assay; assay type: cell-based; conditions: MES pH 5.5, 100 μM 14C-uric acid
T13 construct: expressed in transfected cells; host or cells: HEK-293T
Text: as §1, §2, §3, §4, §5

[6] = molecular target: T14, h-C351F/T354M hURAT1 double point mutant (Homo sapiens, UniProt Q96S37, C351F/T354M); experiment: URAT1 uric acid transport activity assay; assay type: cell-based; conditions: MES pH 5.5, 100 μM 14C-uric acid
T14 construct: expressed in transfected cells; host or cells: HEK-293T
Text: as §1, §2, §3, §4, §5

[7] = molecular target: T15, h-M474V hURAT1 point mutant (Homo sapiens, UniProt Q96S37, M474V); experiment: URAT1 uric acid transport activity assay; assay type: cell-based; conditions: MES pH 5.5, 100 μM 14C-uric acid
T15 construct: expressed in transfected cells; host or cells: HEK-293T
Text: as §1, §2, §3, §4, §5

[8] = molecular target: h-S35N hURAT1 point mutant (Homo sapiens, UniProt Q96S37, S35N); experiment: URAT1 uric acid transport activity assay; assay type: cell-based; conditions: MES pH 5.5, 100 μM 14C-uric acid
Text: as §1, §2, §3, §4, §5

[9] = molecular target: h-F365Y hURAT1 point mutant (Homo sapiens, UniProt Q96S37, F365Y); experiment: URAT1 uric acid transport activity assay; assay type: cell-based; conditions: MES pH 5.5, 100 μM 14C-uric acid
Text: as §1, §2, §3, §4, §5

[10] = molecular target: T16, h-V18L hURAT1 point mutant (Homo sapiens, UniProt Q96S37, V18L); experiment: URAT1 uric acid transport activity assay; assay type: cell-based; conditions: MES pH 5.5, 100 μM 14C-uric acid
T16 construct: expressed in transfected cells; host or cells: HEK-293T
Text: as §1, §2, §3, §4, §5

[11] = molecular target: T17, h-V26T hURAT1 point mutant (Homo sapiens, UniProt Q96S37, V26T); experiment: URAT1 uric acid transport activity assay; assay type: cell-based; conditions: MES pH 5.5, 100 μM 14C-uric acid
T17 construct: expressed in transfected cells; host or cells: HEK-293T
Text: as §1, §2, §3, §4, §5

[12] = molecular target: T18, h-L31V hURAT1 point mutant (Homo sapiens, UniProt Q96S37, L31V); experiment: URAT1 uric acid transport activity assay; assay type: cell-based; conditions: MES pH 5.5, 100 μM 14C-uric acid
T18 construct: expressed in transfected cells; host or cells: HEK-293T
Text: as §1, §2, §3, §4, §5

[13] = molecular target: T19, h-C32T hURAT1 point mutant (Homo sapiens, UniProt Q96S37, C32T); experiment: URAT1 uric acid transport activity assay; assay type: cell-based; conditions: MES pH 5.5, 100 μM 14C-uric acid
T19 construct: expressed in transfected cells; host or cells: HEK-293T
Text: as §1, §2, §3, §4, §5

human URAT1 (hURAT1 WT) = human URAT1 (hURAT1 WT) (Homo sapiens, UniProt Q96S37); experiment: URAT1 uric acid transport activity assay; assay type: cell-based; conditions: MES pH 5.5, 100 μM 14C-uric acid
Text: as §1, §2, §3, §4, §5

[14] = molecular target: T20, h-S27P hURAT1 point mutant (Homo sapiens, UniProt Q96S37, S27P); experiment: URAT1 uric acid transport activity assay; assay type: cell-based; conditions: MES pH 5.5, 100 μM 14C-uric acid
T20 construct: expressed in transfected cells; host or cells: HEK-293T
Text: as §1, §2, §3, §4, §5

[15] = molecular target: T21, h-M29L hURAT1 point mutant (Homo sapiens, UniProt Q96S37, M29L); experiment: URAT1 uric acid transport activity assay; assay type: cell-based; conditions: MES pH 5.5, 100 μM 14C-uric acid
T21 construct: expressed in transfected cells; host or cells: HEK-293T
Text: as §1, §2, §3, §4, §5

Structure (SMILES): O=C(O)CSc1nnc(Br)n1-c1ccc(C2CC2)c2ccccc12 [lesinurad, 2-((5-bromo-4-(4-cyclopropylnaphthalen-1-yl)-4H-1,2,4-triazol-3-yl)thio)acetic acid]
- IC50 [1]: 18 ± 1.6 µM
- IC50 (h-r TM7 URAT1 chimera): 79 ± 8.3 µM
- IC50 (h-r TM8 URAT1 chimera): 2.5 ± 0.77 µM
- IC50 [2]: 4.8 ± 1.6 µM
- IC50 (h-r TM5-N URAT1 chimera): 2.2 ± 0.8 µM
- IC50 (h-r TM6 URAT1 chimera): 6.8 ± 1 µM
- IC50 (h-r TM11 URAT1 chimera): 16 ± 1.3 µM
- IC50 (h-r TM12 URAT1 chimera): 3.9 ± 1.1 µM
- IC50 (h-r TM5-C URAT1 chimera): 8.5 ± 2.1 µM
- IC50 (h-r TM9-C URAT1 chimera): 6.5 ± 1.4 µM
- IC50 (h-r TM9-N URAT1 chimera): 9.2 ± 3.3 µM
- IC50 (h-r IC3 URAT1 chimera): 2.6 ± 0.66 µM
- IC50 [3]: 1.1 ± 0.54 µM
- IC50 [4]: 3.7 ± 0.59 µM
- IC50 [5]: 3.5 ± 1 µM
- IC50 [6]: 6.3 ± 0.71 µM
- IC50 [7]: 2.7 ± 0.26 µM
- IC50 [8]: 5 ± 0.47 µM
- IC50 [9]: 57 ± 6.1 µM
- IC50 [10]: 2.2 ± 0.22 µM
- IC50 [11]: 3.9 ± 0.51 µM
- IC50 [12]: 5.3 ± 0.67 µM
- IC50 [13]: 2.9 ± 0.46 µM
- IC50 (human URAT1 (hURAT1 WT)): 3.5 µM
- IC50 [14]: 1.9 ± 0.63 µM
- IC50 [15]: 4.8 ± 1.3 µM
